In patent publication US5280119A, “Heterocyclic amine-boranes, and method of inhibiting DNA topoisomerase activity and/or combatting inflammation, hyperlipidemia, and/or neoplasia using amine-borane compounds” (dated 1994):
Converted amounts (≈) assume the structure as drawn.

Chains of the proteins cited; added tags and fusions are not shown. Lines headed by an entry give the natural chain unless they say otherwise; changes in a name come on top.
UniProt Q64505: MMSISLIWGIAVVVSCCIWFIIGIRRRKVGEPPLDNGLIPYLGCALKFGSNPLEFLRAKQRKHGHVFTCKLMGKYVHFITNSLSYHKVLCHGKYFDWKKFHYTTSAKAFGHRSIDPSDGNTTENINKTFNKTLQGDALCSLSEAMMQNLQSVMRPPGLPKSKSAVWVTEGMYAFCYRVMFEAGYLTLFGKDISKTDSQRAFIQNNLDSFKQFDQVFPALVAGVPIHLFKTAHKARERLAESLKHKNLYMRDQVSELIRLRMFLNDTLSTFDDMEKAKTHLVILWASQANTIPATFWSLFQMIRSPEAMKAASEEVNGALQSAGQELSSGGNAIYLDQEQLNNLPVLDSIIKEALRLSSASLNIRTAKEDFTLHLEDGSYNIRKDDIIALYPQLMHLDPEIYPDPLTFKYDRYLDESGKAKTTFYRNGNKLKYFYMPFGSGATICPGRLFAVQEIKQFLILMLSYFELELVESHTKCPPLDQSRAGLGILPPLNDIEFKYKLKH
UniProt Q9QXG4, whole entry, looked up: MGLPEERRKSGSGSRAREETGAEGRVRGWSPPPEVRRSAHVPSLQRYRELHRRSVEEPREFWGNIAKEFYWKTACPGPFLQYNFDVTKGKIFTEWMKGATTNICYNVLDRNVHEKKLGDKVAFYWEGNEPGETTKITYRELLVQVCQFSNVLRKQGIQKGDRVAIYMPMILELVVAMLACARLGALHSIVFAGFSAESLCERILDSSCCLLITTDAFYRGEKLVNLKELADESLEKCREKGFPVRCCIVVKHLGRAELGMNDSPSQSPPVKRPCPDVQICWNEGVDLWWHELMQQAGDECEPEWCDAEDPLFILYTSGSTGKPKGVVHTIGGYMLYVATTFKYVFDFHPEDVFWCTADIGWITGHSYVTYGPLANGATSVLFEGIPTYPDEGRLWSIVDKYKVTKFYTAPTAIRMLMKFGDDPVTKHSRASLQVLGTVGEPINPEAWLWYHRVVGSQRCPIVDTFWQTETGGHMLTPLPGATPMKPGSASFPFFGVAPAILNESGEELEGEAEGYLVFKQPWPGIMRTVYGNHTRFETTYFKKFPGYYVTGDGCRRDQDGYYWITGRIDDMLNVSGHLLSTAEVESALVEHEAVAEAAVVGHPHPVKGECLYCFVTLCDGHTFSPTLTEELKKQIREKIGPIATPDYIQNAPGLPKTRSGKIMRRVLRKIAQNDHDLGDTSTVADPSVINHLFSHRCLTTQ
UniProt O88908: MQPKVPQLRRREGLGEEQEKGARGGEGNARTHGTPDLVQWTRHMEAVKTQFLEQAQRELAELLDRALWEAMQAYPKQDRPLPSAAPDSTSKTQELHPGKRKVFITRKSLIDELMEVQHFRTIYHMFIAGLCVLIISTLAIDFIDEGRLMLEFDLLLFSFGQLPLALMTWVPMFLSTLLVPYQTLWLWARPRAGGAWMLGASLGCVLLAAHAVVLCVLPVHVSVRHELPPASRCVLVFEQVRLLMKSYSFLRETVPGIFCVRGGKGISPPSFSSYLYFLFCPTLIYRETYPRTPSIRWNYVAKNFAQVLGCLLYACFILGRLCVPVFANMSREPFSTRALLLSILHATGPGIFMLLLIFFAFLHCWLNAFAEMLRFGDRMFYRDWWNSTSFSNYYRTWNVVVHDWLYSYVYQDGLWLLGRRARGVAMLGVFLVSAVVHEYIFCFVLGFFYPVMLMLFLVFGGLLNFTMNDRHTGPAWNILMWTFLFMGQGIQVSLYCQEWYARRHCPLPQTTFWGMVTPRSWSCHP
UniProt Q91V92: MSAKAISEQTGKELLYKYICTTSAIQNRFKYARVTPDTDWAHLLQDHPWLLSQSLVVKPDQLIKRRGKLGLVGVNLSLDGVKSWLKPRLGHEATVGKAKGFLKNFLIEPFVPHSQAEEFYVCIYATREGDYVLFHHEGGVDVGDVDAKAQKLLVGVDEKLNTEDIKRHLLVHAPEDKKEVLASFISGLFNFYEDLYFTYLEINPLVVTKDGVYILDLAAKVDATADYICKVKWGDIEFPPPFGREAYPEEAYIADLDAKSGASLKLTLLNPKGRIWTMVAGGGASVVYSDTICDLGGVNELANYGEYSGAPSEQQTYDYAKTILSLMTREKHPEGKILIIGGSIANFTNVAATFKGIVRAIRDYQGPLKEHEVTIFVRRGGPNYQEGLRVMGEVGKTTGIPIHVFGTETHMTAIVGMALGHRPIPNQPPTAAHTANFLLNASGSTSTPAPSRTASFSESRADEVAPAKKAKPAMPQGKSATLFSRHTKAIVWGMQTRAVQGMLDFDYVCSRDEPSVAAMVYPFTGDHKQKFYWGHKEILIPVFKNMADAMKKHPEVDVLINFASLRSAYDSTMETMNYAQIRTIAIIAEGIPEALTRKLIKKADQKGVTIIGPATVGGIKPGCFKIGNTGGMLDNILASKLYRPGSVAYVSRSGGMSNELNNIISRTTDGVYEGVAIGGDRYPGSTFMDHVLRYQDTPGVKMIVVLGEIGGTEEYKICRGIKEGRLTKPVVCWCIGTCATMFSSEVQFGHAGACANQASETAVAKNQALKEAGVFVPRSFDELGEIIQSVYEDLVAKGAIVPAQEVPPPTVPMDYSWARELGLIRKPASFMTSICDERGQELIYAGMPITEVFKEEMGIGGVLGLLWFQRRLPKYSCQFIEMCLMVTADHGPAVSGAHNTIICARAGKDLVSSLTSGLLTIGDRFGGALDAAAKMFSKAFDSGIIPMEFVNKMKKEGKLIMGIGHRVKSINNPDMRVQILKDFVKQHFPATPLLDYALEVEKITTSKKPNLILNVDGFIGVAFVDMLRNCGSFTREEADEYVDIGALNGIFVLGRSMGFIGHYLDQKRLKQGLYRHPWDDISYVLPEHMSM

Tests used:
[1] = system: human Tmolt3 acute lymphoblastic T cell leukemia; experiment: Cytotoxicity, Tmolt3; settings: trypan blue exclusion
[2] = system: HeLa-S^3 suspended cervical carcinoma; experiment: Cytotoxicity, HeLa-S3; settings: hela-s3 cells
[3] = Serum lipoprotein fractions; settings: rats, 8 mg/kg/day orally 14 days, N = 6
[4] = system: glioma EH 118 MG; experiment: Cytotoxicity, glioma EH 118 MG; settings: eh 118 mg cells
[5] = system: P388 lymphocytic leukemia; experiment: in vivo P388 lymphocytic screen; settings: 20 mg/kg/day I.P.
[6] = system: osteosarcoma TE418; experiment: Cytotoxicity, osteosarcoma TE418; settings: te418 cells
[7] = Hypolipidemic screen in normal mice; settings: CF1 male mice, IP
[8] = system: murine L1210 lymphoid leukemia; experiment: Cytotoxicity, L1210 lymphoid leukemia; settings: trypan blue exclusion
[9] = system: lung bronchogenic MB-9812; experiment: Cytotoxicity, lung bronchogenic MB-9812; settings: concentration which inhibits 50% of cell growth
[10] = molecular target: Acetyl CoA Carboxylase (Mus musculus, UniProt Q5SWU9); experiment: Acetyl CoA carboxylase, liver in vitro
[11] = system: P388 lymphocytic leukemia; experiment: Cytotoxicity, P388 lymphocytic leukemia
[12] = system: KB epidermoid nasopharynx; experiment: Cytotoxicity, KB epidermoid nasopharynx; settings: kb cells
[13] = molecular target: Cholesterol 7α Hydroxylase (Mus musculus, UniProt Q64505); experiment: Cholesterol-7α-hydroxylase, liver in vitro
[14] = Anti-inflammatory activity, carrageenan paw; settings: CF1 Mice, 20 mg/kg × 2 (table head; b1373: 8 mg/kg i.p. 3 hours and 30 minutes before carrageenan)
[15] = system: colorectal adenocarcinoma SW480; experiment: Cytotoxicity, colorectal adenocarcinoma SW480; settings: sw480 cells
[16] = molecular target: Acetyl CoA Synthetase (Mus musculus, UniProt Q9QXG4); experiment: Acetyl CoA synthetase, liver homogenate in vitro; settings: 30 min
[17] = system: Phosphatidylate Phosphohydrolase; experiment: Phosphatidylate phosphohydrolase, liver in vitro; settings: 30 min
[18] = system: Neutral Cholesterol Ester Hydrolase; experiment: Neutral cholesterol ester hydrolase, liver in vitro
[19] = molecular target: Acyl CoA Cholesterol Acyl Transferase (Mus musculus, UniProt O88908); experiment: Acyl CoA cholesterol acyl transferase, liver in vitro
[20] = molecular target: ATP Dependent Citrate Lyase (Mus musculus, UniProt Q91V92); experiment: ATP dependent citrate lyase, liver homogenate in vitro; settings: 30 min
[21] = system: SN Glycerol 3 Phosphate Acyl Transferase; experiment: sn-Glycerol-3-phosphate acyl transferase, liver in vitro
[22] = system: Mitochondrail Citrate Lyase; experiment: Mitochondrial citrate exchange, liver homogenate in vitro; settings: N = 6, 10 min
[23] = system: HMG CoA Reductase; experiment: HMG CoA reductase (cholesterol synthesis), liver in vitro
[24] = Liver, small intestine, aorta, bile and fecal lipid extraction; settings: rats, 8 mg/kg/day orally 14 days
[25] = Hypolipidemic screen in normal rats (serum lipids, body weight, food)
[26] = Sprague Dawley male rats, 8 mg/kd/day orally (clofibrate 150 mg/kg/day)

SMILES: COC(=O)[BH2-][NH+]1CCC(c2ccccc2)CC1 (centres unmarked)
- ED50 Cytotoxicity, Human lymphocyte Tmolt3 [1]: 2.34 µg/mL (≈ 10 µM)
- ED50 Cytotoxicity, Human HeLa-S^3 [2]: 2.92 µg/mL (≈ 12.5 µM)
- Chylomicron Cholesterol [3]: 98 ± 7% of Control
- Chylomicron Neutral Lipids [3]: 75 ± 4% of Control
- Chylomicron Phospholipids [3]: 22 ± 7% of Control
- Chylomicron Protein [3]: 103 ± 5% of Control
- Chylomicron Triglyceride [3]: 116 ± 8% of Control
- HDL Cholesterol [3]: 209 ± 10% of Control
- HDL Neutral Lipids [3]: 97 ± 6% of Control
- HDL Phospholipids [3]: 58 ± 5% of Control
- HDL Protein [3]: 89 ± 7% of Control
- HDL Triglyceride [3]: 104 ± 5% of Control
- LDL Cholesterol [3]: 28 ± 3% of Control
- LDL Neutral Lipids [3]: 62 ± 5% of Control
- LDL Phospholipids [3]: 124 ± 6% of Control
- LDL Protein [3]: 81 ± 6% of Control
- LDL Triglyceride [3]: 48 ± 5% of Control
- VLDL Cholesterol [3]: 39 ± 4% of Control
- VLDL Neutral Lipids [3]: 92 ± 8% of Control
- VLDL Phospholipids [3]: 56 ± 6% of Control
- VLDL Protein [3]: 98 ± 7% of Control
- VLDL Triglyceride [3]: 93 ± 7% of Control
- ED50 Cytotoxicity, Human Glioma [4]: 2.36 µg/mL (≈ 10.1 µM)
- T/C%, in vivo P388 lymphocytic screen [5]: 149%
- ED50 Cytotoxicity, Human Osteo-Sarcoma [6]: 6.65 µg/mL (≈ 28.5 µM)
- Serum Cholesterol Day 9 ([7]; 8 Mg/kg/day, N = 6): 75 ± 4% of Control
- Serum Cholesterol Day 16 ([7]; 8 Mg/kg/day, N = 6): 59 ± 4% of Control
- Serum Triglycerides Day 16 ([7]; 8 Mg/kg/day, N = 6): 73 ± 5% of Control
- serum cholesterol level lowered ([7]; doses of Table 6): 41%
- ED50 Cytotoxicity, L1210 Lymphoid Leukemia [8]: 2.62 µg/mL (≈ 11.2 µM)
- ED50 Cytotoxicity, Human Lung Bronchogenic [9]: 4.75 µg/mL (≈ 20.4 µM)
- Acetyl CoA Carboxylase ([10]; 25 μM): 102 ± 6% of Control
- Acetyl CoA Carboxylase ([10]; 50 μM): 52 ± 4% of Control
- Acetyl CoA Carboxylase ([10]; 100 μM): 45 ± 4% of Control
- ED50 Cytotoxicity, P388 Lymphocytic Leukemia ([11]; p388 cells): 4.00 µg/mL (≈ 17.2 µM)
- activity in the murine P388 lymphocytic screen (in words) ([11]; text summary of Table 4): marginally active
- ED50 Cytotoxicity, Human KB [12]: 5.62 µg/mL (≈ 24.1 µM)
- Cholesterol 7α Hydroxylase ([13]; 25 μM): 102 ± 5% of Control
- Cholesterol 7α Hydroxylase ([13]; 50 μM): 117 ± 9% of Control
- Cholesterol 7α Hydroxylase ([13]; 100 μM): 121 ± 6% of Control
- % of Control, anti-inflammatory (paw weight increase) [14]: 67 % of Control
- ED50 Cytotoxicity, Human Colon SW480 [15]: 7.41 µg/mL (≈ 31.8 µM)
- Acetyl CoA Synthetase ([16]; 25 μM): 80 ± 5% of Control
- Acetyl CoA Synthetase ([16]; 50 μM): 73 ± 5% of Control
- Acetyl CoA Synthetase ([16]; 100 μM): 47 ± 5% of Control
- Phosphatidylate Phosphohydrolase ([17]; 25 μM): 112 ± 5% of Control
- Phosphatidylate Phosphohydrolase ([17]; 50 μM): 99 ± 7% of Control
- Phosphatidylate Phosphohydrolase ([17]; 100 μM): 90 ± 7% of Control
- Neutral Cholesterol Ester Hydrolase ([18]; 25 μM): 153 ± 8% of Control
- Neutral Cholesterol Ester Hydrolase ([18]; 50 μM): 296 ± 12% of Control
- Neutral Cholesterol Ester Hydrolase ([18]; 100 μM): 338 ± 10% of Control
- Acyl CoA Cholesterol Acyl Transferase ([19]; 25 μM): 128 ± 7% of Control
- Acyl CoA Cholesterol Acyl Transferase ([19]; 50 μM): 96 ± 5% of Control
- Acyl CoA Cholesterol Acyl Transferase ([19]; 100 μM): 82 ± 5% of Control
- ATP Dependent Citrate Lyase ([20]; 25 μM): 59 ± 4% of Control
- ATP Dependent Citrate Lyase ([20]; 50 μM): 26 ± 3% of Control
- ATP Dependent Citrate Lyase ([20]; 100 μM): 14 ± 3% of Control
- SN Glycerol 3 Phosphate Acyl Transferase ([21]; 25 μM): 103 ± 7% of Control
- SN Glycerol 3 Phosphate Acyl Transferase ([21]; 50 μM): 105 ± 6% of Control
- SN Glycerol 3 Phosphate Acyl Transferase ([21]; 100 μM): 111 ± 6% of Control
- Mitochondrail Citrate Lyase ([22]; 25 μM): 100 ± 7% of Control
- Mitochondrail Citrate Lyase ([22]; 50 μM): 98 ± 6% of Control
- Mitochondrail Citrate Lyase ([22]; 100 μM): 77 ± 5% of Control
- HMG CoA Reductase ([23]; 25 μM): 77 ± 4% of Control
- HMG CoA Reductase ([23]; 50 μM): 70 ± 5% of Control
- HMG CoA Reductase ([23]; 100 μM): 67 ± 4% of Control
- Aorta Cholesterol [24]: 84 ± 6% of Control
- Aorta Neutral Lipids [24]: 153 ± 5% of Control
- Aorta Phosphate Lipids [24]: 75 ± 5% of Control
- Aorta Protein [24]: 105 ± 6% of Control
- Aorta Triglyceride [24]: 81 ± 6% of Control
- Aorta mg Lipid Extracted [24]: 115 ± 7% of Control
- Bile Cholesterol [24]: 201 ± 12% of Control
- Bile Neutral Lipids [24]: 118 ± 6% of Control
- Bile Phosphate Lipids [24]: 104 ± 9% of Control
- Bile Protein [24]: 125 ± 6% of Control
- Bile Triglyceride [24]: 106 ± 5% of Control
- Liver Cholesterol [24]: 97 ± 7% of Control
- Liver Neutral Lipids [24]: 132 ± 7% of Control
- Liver Phosphate Lipids [24]: 102 ± 6% of Control
- Liver Protein [24]: 124 ± 5% of Control
- Liver Triglyceride [24]: 22 ± 3% of Control
- Liver mg Lipid Extracted [24]: 103 ± 5% of Control
- Small Intestine Cholesterol [24]: 93 ± 7% of Control
- Small Intestine Neutral Lipids [24]: 102 ± 6% of Control
- Small Intestine Phosphate Lipids [24]: 20 ± 2% of Control
- Small Intestine Protein [24]: 119 ± 5% of Control
- Small Intestine Triglyceride [24]: 165 ± 6% of Control
- Small Intestine mg Lipid Extracted [24]: 108 ± 7% of Control
- Feces Cholesterol ([24]; 24 h collection): 239 ± 12% of Control
- Feces Neutral Lipids ([24]; 24 h collection): 97 ± 8% of Control
- Feces Phosphate Lipids ([24]; 24 h collection): 255 ± 6% of Control
- Feces Protein ([24]; 24 h collection): 205 ± 9% of Control
- Feces Triglyceride ([24]; 24 h collection): 85 ± 6% of Control
- Feces mg Lipid Extracted ([24]; 24 h collection): 296 ± 10% of Control
- Serum Cholesterol Day 7 [25, 26]: 47 ± 5% of Control
- Serum Cholesterol Day 14 [25, 26]: 49 ± 4% of Control
- Serum Triglycerides Day 7 [25, 26]: 81 ± 7% of Control
- Serum Triglycerides Day 14 [25, 26]: 52 ± 5% of Control
- Percent Body Wt ([25]; Sprague Dawley male rats, 14 days at 8 mg/kd/day orally, 1% CMC control 131): 125%
- Daily food consumption reduced ([25]; rats, 8 mg/kg/day orally): 14%
- rat serum cholesterol levels lowered ([25]; rats, 8 mg/kg/day orally, after 14 days): greater than 40%
- rat serum triglyceride levels reduced ([25]; rats, 8 mg/kg/day orally, day 14): 48%
- reduction of the total body weight increase ([25]; rats, 8 mg/kg/day orally, over 14 days): 6%
